{"sequences": {"note": "The chains behind the UniProt entries cited, without tags or fusion partners.", "UniProt P00811, whole entry": "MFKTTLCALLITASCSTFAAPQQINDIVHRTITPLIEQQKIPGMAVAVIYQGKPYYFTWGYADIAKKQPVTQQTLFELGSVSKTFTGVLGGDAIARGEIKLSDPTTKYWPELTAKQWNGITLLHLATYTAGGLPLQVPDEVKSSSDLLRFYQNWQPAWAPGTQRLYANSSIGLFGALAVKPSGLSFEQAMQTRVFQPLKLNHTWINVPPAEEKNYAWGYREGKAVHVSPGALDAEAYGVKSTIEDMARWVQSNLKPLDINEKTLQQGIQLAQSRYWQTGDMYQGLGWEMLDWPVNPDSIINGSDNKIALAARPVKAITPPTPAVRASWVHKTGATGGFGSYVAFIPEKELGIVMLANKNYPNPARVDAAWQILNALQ"}, "source": "PubChem BioAssay AID485294", "about": "(National Center for Advancing Translational Sciences (NCATS), 2010)", "note": "Several values for one entry are separate records, joined by “and”; a condition that tells them apart may be missing. Identical values can stand only once. The entries are a selection whose mix differs from that of the whole data set. Some results for these compounds are left out of this collection, so the calls shown say nothing about other tests. Inconclusive results are not listed. Activity calls are given as the source filed them. The call rests on the fitted dose curve; in most records, active means well fitted inhibition curve with a large enough effect; inconclusive means small, poorly fitted or top-dose-only effect; inactive means flat fitted curve, though single readings scatter.", "data": [{"molecular_target": "Beta-lactamase (Escherichia coli (strain K12)) (UniProt P00811)", "test": "qHTS Inhibitors of AmpC Beta-Lactamase (assay with detergent);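 further: 0% = no-compound wells and -100% = no-enzyme wells; nearly all actives have a fitted effect of over 25% in size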", "conditions": "AmpC hydrolysis of nitrocefin, absorbance 480 nm, 0.01% Triton; at 114 µM (top of the series)", "values": [{"smiles": "CN(C)C1(CNC(=O)c2ccc(Br)cc2)CCCCC1", "activity change, negative = inhibition": "inactive: -2.6%"}, {"smiles": "COc1cc(C(=O)NCC2(N(C)C)CCCCC2)c([N+](=O)[O-])cc1OC", "activity change, negative = inhibition": "inactive: -1.72%"}, {"smiles": "COc1ccc(C(=O)NCC2(N(C)C)CCCCC2)cc1Cl", "activity change, negative = inhibition": "inactive: -5.87%"}, {"smiles": "COc1cccc(C(=O)NCC2(N3CCCCC3)CCCCC2)c1", "activity change, negative = inhibition": "inactive: -6.63%"}, {"smiles": "COc1ccc(Cl)cc1C(=O)NCC1(N(C)C)CCCCC1", "activity change, negative = inhibition": "inactive: -1.43%"}, {"smiles": "O=C(NCC1(N2CCCCC2)CCCCC1)c1cccc(Cl)c1", "activity change, negative = inhibition": "inactive: 2.5%"}, {"smiles": "COc1cccc(C(=O)NCC2(N3CCOCC3)CCCCC2)c1", "activity change, negative = inhibition": "inactive: 19%"}, {"smiles": "CC(C)COc1ccc(C(=O)NCC2(N(C)C)CCCCC2)cc1", "activity change, negative = inhibition": "inactive: 21.1%"}, {"smiles": "Cc1cccc(C(=O)NCC2(N(C)C)CCCCC2)c1", "activity change, negative = inhibition": "inactive: 2.69%"}, {"smiles": "COc1cc(C(=O)NCC2(N(C)C)CCCCC2)cc(OC)c1OC", "activity change, negative = inhibition": "inactive: 18.1%"}, {"smiles": "COc1ccc(Br)c(C(=O)NCC2(N3CCCCC3)CCCCC2)c1", "activity change, negative = inhibition": "inactive: 1.14%"}, {"smiles": "CC(C)Oc1ccc(C(=O)NCC2(N(C)C)CCCCC2)cc1", "activity change, negative = inhibition": "inactive: 20.6% and inactive: -5.37%"}, {"smiles": "O=C(NCC1(N2CCCCC2)CCCCC1)c1cc([N+](=O)[O-])ccc1Cl", "activity change, negative = inhibition": "inactive: -3.33%"}, {"smiles": "CN1[C@@H]2CC[C@H]1CC(OC(=O)C(O)(c1ccccc1)c1ccccc1)C2", "note": "(some centres not stated)", "activity change, negative = inhibition": "inactive: 1.33%"}, {"smiles": "CC(C)N1C(=O)CC2(CCN(CCOC(=O)C(O)(c3ccccc3)c3ccccc3)CC2)C1=O", "activity change, negative = inhibition": "inactive: -11.1%"}, {"smiles": "CCN(CC)CC(C)C(C)OC(=O)C(O)(c1ccccc1)c1ccccc1", "note": "(configuration not stated)", "activity change, negative = inhibition": "inactive: -7.96%"}, {"smiles": "CN(C)C1(CNC(=O)c2cccc(Cl)c2)CCCCC1", "activity change, negative = inhibition": "inactive: 22.8%"}, {"smiles": "COc1cc(SC)ccc1C(=O)NCC1(N(C)C)CCCCC1", "activity change, negative = inhibition": "inactive: 2.35%"}, {"smiles": "CN(C)C1(CNC(=O)c2ccccc2F)CCCCC1", "activity change, negative = inhibition": "inactive: 21%"}, {"smiles": "Cc1ccc(C(=O)NCC2(N3CCCCC3)CCCCC2)cc1", "activity change, negative = inhibition": "inactive: -5.49%"}, {"smiles": "CN(C)C1(CNC(=O)c2ccccc2[N+](=O)[O-])CCCCC1", "activity change, negative = inhibition": "inactive: 17.6%"}, {"smiles": "Cc1ccccc1C(=O)NCC1(N2CCCCC2)CCCCC1", "activity change, negative = inhibition": "inactive: -12.2%"}, {"smiles": "CN(C)C1CCCC1OC(=O)C(O)(c1ccccc1)c1ccccc1", "note": "(configuration not stated)", "activity change, negative = inhibition": "inactive: 6.82%"}, {"smiles": "CN(C)c1ccc(C(=O)NCC2(N(C)C)CCCCC2)cc1", "activity change, negative = inhibition": "inactive: -4.52%"}, {"smiles": "CCCCOc1ccccc1C(=O)NCC1(N(C)C)CCCCC1", "activity change, negative = inhibition": "inactive: -5.59%"}, {"smiles": "C=CCN1CCN(CCOC(=O)C(O)(c2ccccc2)c2ccccc2)CC1", "activity change, negative = inhibition": "inactive: 8.63%"}, {"smiles": "O=C(NCC1(N2CCCCC2)CCCCC1)c1cc(F)c(F)cc1Cl", "activity change, negative = inhibition": "inactive: -2.34%"}, {"smiles": "Cc1cc(C(=O)NCC2(N3CCCCC3)CCCCC2)ccc1[N+](=O)[O-]", "activity change, negative = inhibition": "inactive: 2.29%"}, {"smiles": "CCN1CCCC(OC(=O)C2(O)c3ccccc3C=Cc3ccccc32)C1", "note": "(configuration not stated)", "activity change, negative = inhibition": "inactive: -11.7%"}, {"smiles": "O=C(NCC1(N2CCCCC2)CCCCC1)c1cccc(Br)c1", "activity change, negative = inhibition": "inactive: 0.232%"}, {"smiles": "COc1ccc(C(=O)NCC2(N(C)C)CCCCC2)cc1", "activity change, negative = inhibition": "inactive: -10.2%"}, {"smiles": "CCOc1cccc(C(=O)NCC2(N(C)C)CCCCC2)c1", "activity change, negative = inhibition": "inactive: 19%"}]}]}
